Results reported in US20180118786A1 (published 2018).

Molecular target: T1, human β-FXIIa (HFXIIAB; Molecular Innovations) (human, UniProt P00748 354-362; P00748 373-615)
T1 chain 1: NGPLSCGQR
T1 chain 2: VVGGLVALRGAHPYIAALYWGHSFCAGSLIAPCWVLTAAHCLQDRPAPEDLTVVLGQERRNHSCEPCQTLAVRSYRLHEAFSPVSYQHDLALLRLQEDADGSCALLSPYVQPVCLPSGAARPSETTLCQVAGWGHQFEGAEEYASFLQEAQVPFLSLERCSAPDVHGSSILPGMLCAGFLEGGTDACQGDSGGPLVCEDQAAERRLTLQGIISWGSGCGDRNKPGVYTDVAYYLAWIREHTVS
Assay: enzyme inhibition

- Ki: 32 nM
Binder: RCFRLPCAQLSCA [FXII611]
